# The other results are listed elsewhere or left out. Records with an inconclusive call do not appear. Calls of active or inactive are those of the source. The call rests on the fitted dose curve; in most records, active means well fitted inhibition curve with a large enough effect in the signal ratio, with a control signal flat (not every such curve was filed as active); inconclusive means small, poorly fitted or top-dose-only effect, or effect the other way, or a change in a side signal; inactive means flat fitted curve, though single readings scatter; the % refers to the signal ratio.
# Assay: qHTS Assay to Find Inhibitors of Chronic Active B-Cell Receptor Signaling;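 further: plate controls were basal doxycycline-induced cells for no effect and cells given 10 µM MG132 for full effect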
# Details: ABC-DLBCL IkBa-CBG/CBR reporter, luminescence ratio (green luciferase fused to IkBa over red control in TMD8 lymphoma cells), 4 h; at 46.1 µM (top of the series)
# From the text: NIH Molecular Libraries Probe Production Network [MLPCN] NIH Chemical Genomics Center [NCGC] MLPCN Grant: 1 R03 DA031086-01A1 PI Name: Dr. R. Eric Davis NCGC Assay Overview: Diffuse large B-cell lymphoma (DLBCL) is the most common category of non-Hodgkin lymphoma, with ~20,000 new cases per year in the United States. DLBCL should be regarded as a collection of different neoplasms. Microarray gene expression analysis has defined two principal types of DLBCL, named for their similarity to normal B cell stages or activation states: a germinal center B-cell (GCB) type, and an activated B-cell (ABC) type. In ABC-DLBCL, a constitutive high-level activity of the NF-kappaB family of transcription factors has been observed (1) and NF-kappaB target genes are more highly expressed in ABC primary tumors than in GCB tumors. Functional studies have shown a constitutive high-level activity of the IkappaB (inhibitor of kappa-B) kinase (IKK) complex. […] Further analysis of DLBCL primary tumors for NF-kappaB target gene expression imply that although CARD11 is required for constitutive IKK activity in all ABC-DLBCL lines, mutations in CARD11 may be the root cause of IKK activation only in lines or tumors with such mutations. In other words, CARD11 mutations may explain NF-kappaB activation in only 10% of ABC-DLBCL cases. […] This process has been termed 'chronic active BCR signaling' (CABS). The goal of this screen is to find small-molecule inhibitors of the CABS pathway found in ABC-DLBCL lines using a cell-based assay that measures IkappaBalpa stability, which has already been extensively validated in the OCI-Ly3 line (PubChem AID:445; REF: 4). […] The assay uses green (CBG68) and red (CBR) emitting beetle luciferases [Chroma-GloTM developed by Promega Corp.] where the green luciferase is fused to IkappaBalpha and the red luciferase is present in its native state. Both luciferase genes are stably present in the TMD8 human ABC DLBCL cell line, but their expression is under the control of tetracycline-inducible promoters. Following the addition of doxycycline to induce expression of the luciferases, the green luminescence in control cultures rises only slowly because the CBG fusion partner IkappaBalpha is targeted by IKK activity for rapid degradation. In contrast, green luminescence rises rapidly in the presence of proteasome inhibitors or IKK inhibitors. The rise in red luminescence of CBR is not affected by proteasome or IKK inhibitors, and serves as normalization for cell number and nonspecific effects. Compounds were screened as a concentration-titration series that ranged from 46 uM to 3 nM.
# NCGC Assay Protocol Summary: Cells were seeded in 1536-well plates at 5000 cells/4uL in IMDM medium containing 0.5% FBS, w/o phenol red, 1% penicillin/streptomycin. Then, 23 nL of compounds or DMSO were delivered to each well using a pin tool. One uL 20ng/ml doxycycline was then dispensed into white solid 1536-well plates and the plates were incubated at 37C/5% C02 in a cell incubator for 4 hrs. Then 4 uL luminescent substrate mix (in-house prepared: 150 mM Tris-Cl, pH 7.6, 3 mM MgCl2, 1% Triton X-100, 5 mM DTT, 0.2 mM CoA, 0.15 mM ATP, 5 mM D-luciferin, final concentrations) was added to each well. The plate was incubated at r.t. for 10-15 min. The plates were measured on a ViewLux plate reader for green luminescence (540/20 nm filter) and red luminescence (618/8 nm filter). The green and red luminescent signals were corrected for red and green luminescence filter overlap using previously determined filter calibration constants (determined using the procedure outlined in the Promega Technical Manual; REF 4). The %Activity was determined from the ratio of corrected green/red luminescent values. MG132 were used as control. […] Red luminescent %Activity was normalized to the difference between red luminesence in basal cells (0%Activity) and zero luminescence (-100% Activity). […]
row,SMILES,"activity change, negative = inhibition"
1,O=C(NCC1(N2CCCCC2)CCCCC1)c1cncc(Br)c1,inactive: 5.53%
2,O=C(OC1CN2CCC1CC2)c1ccc([N+](=O)[O-])cc1 (configuration not stated),inactive: -2.27%
3,CCCOc1ccc(C(=O)NCC2(N(C)C)CCCCC2)cc1OC,inactive: 3.26%
4,O=[N+]([O-])c1cc([N+](=O)[O-])c(OC2CCCCC2O)c([N+](=O)[O-])c1 (configuration not stated),inactive: 4.48%
5,CN(C)c1cccc(C(=O)NCC2(N3CCCCC3)CCCCC2)c1,inactive: 3.58%
6,CC(C)c1ccc(NC2CCN(C(=O)OC(C)(C)C)CC2)cc1,inactive: -18.7%
7,COc1cc(OC)c(C(=O)NCC2(N(C)C)CCCCC2)cc1OC,inactive: 5.53%
8,O=C(NCC1(N2CCOCC2)CCCCC1)c1cc(F)c(F)cc1Cl,inactive: -0.252%
9,O=C(NCC1(N2CCCCC2)CCCCC1)c1cccc(C(F)(F)F)c1,inactive: 2.57%
10,CN1CCN(CCOC(=O)C(O)(c2ccccc2)c2ccccc2)CC1,inactive: 4.96%
11,CC(C)c1ccc(C(=O)NCC2(N3CCOCC3)CCCCC2)cc1,inactive: 9.33%
12,COc1cc(C(=O)NCC2(N3CCCCC3)CCCCC2)ccc1OC(F)F,inactive: -26.4%
13,O=C(NCC1(N2CCOCC2)CCCCC1)c1cc(=O)[nH]c2ccccc12,inactive: -1.36%
14,O=C(NCC1(N2CCCCC2)CCCCC1)c1ccc(OC(F)F)cc1,inactive: 0.831%
15,O=C(NCC1(N2CCCCC2)CCCCC1)c1cccc([N+](=O)[O-])c1,inactive: -13.8%
16,CSc1ccc(C(=O)NCC2(N3CCOCC3)CCCCC2)cc1,inactive: 8.32%
17,CCN1CCC(Nc2ccc(Cl)cc2)CC1,inactive: -0.598%
18,N#CC1(Nc2ccccc2)CCN(CCc2ccccc2)CC1,inactive: 10.8%
19,CCOC(=O)N1CCC(Nc2cccc(C)c2)CC1,inactive: 3.09%
20,Cc1ccc(OCC(C)C)c(CN(CCCl)CCCl)c1,inactive: 2.76%
21,CCOc1ccc(C)cc1CN(CCCl)CCCl,inactive: -0.0325%
22,CCCCOc1ccc(C(=O)NCC2(N3CCOCC3)CCCCC2)cc1,inactive: -0.659%
23,O=C(NCC1(N2CCCCC2)CCCCC1)c1ccc(F)cc1,inactive: 6.74%

row,SMILES,"activity change, negative = inhibition"
1,COc1ccc(NC2CCN(CCc3ccccc3)CC2)c(OC)c1,inactive: -1.56%
2,CCOC(=O)N1CCC(Nc2ccc(F)cc2)CC1,inactive: 6.29%
3,O=C(NCC1(N2CCOCC2)CCCCC1)c1cc2ccccc2o1,inactive: 0.149%
4,O=C(NCC1(N2CCCCC2)CCCCC1)c1ccc(Cl)nc1,inactive: 0.0508%
5,Cc1cc(C)cc(N(C(=O)c2ccccc2)C2CCN(C(=O)OC(C)(C)C)CC2)c1,inactive: -0.621%
6,CCOC(=O)N1CCC(Nc2ccc(OC)cc2)CC1,inactive: 5.13%
7,O=C(NCC1(N2CCCCC2)CCCCC1)c1ccc(Cl)s1,inactive: 5.32%
8,N#CC1(Nc2ccccc2)CCN(Cc2ccccc2)CC1,inactive: 2.2%
9,O=C(OC1CN2CCC1CC2)C1c2ccccc2Oc2ccccc21 (configuration not stated),inactive: 2.02%
10,COc1ccc(Cl)cc1C(=O)NCC1(N2CCOCC2)CCCCC1,inactive: 6.18%
11,O=C(NCC1(N2CCCCC2)CCCCC1)c1ccc(=O)[nH]c1,inactive: -0.109%
12,O=C(NCC1(N2CCCCC2)CCCCC1)c1cccs1,inactive: 0.0717%
13,COc1ccc(C(=O)NCC2(N3CCCCC3)CCCCC2)cc1,inactive: 6.55%
14,CC(C)(C)OC(=O)N1CCC(N(C(=O)c2ccccc2)c2ccc(F)cc2)CC1,inactive: -2.83%
15,COc1ccc(C(=O)NCC2(N3CCCCC3)CCCCC2)c(OC)c1OC,inactive: -0.443%
16,CSc1ccccc1C(=O)NCC1(N2CCCCC2)CCCCC1,inactive: 1.47%
17,CCC(CO)(C(=O)OC1CN2CCC1CC2)c1ccccc1 (configuration not stated),inactive: 0.146%
18,COc1cccc(C(=O)N(c2cc(C)cc(C)c2)C2CCN(C(=O)OC(C)(C)C)CC2)c1,inactive: 4.77%
19,CCCOc1ccc(C)cc1CN(CCCl)CCCl,inactive: 0.282%
20,CN1CCC(Nc2ccc(Cl)cc2)CC1,inactive: -1.38%
21,CCOc1ncccc1C(=O)NCC1(N2CCOCC2)CCCCC1,inactive: 4.55%
22,CN1CCC(Nc2ccc(F)c(Cl)c2)CC1,inactive: -0.236%
23,CCCOc1ccc(C(=O)NCC2(N(C)C)CCCCC2)cc1,inactive: 1.85%

row,SMILES,"activity change, negative = inhibition"
1,CC(C)(C)OC(=O)N1CCC(Nc2ccccc2)CC1,inactive: 4.74%
2,O=C(O)C1(Nc2ccccc2)CCN(Cc2ccccc2)CC1,inactive: 1.33%
3,CCN1CCC(Nc2cccc(F)c2)CC1,inactive: 0.432%
4,O=C(NCC1(N2CCCCC2)CCCCC1)c1ccco1,inactive: 0.529%
5,CN(C)c1ccc(C(=O)NCC2(N3CCCCC3)CCCCC2)cc1,inactive: -0.742%
6,COc1cc(OC)cc(C(=O)NCC2(N3CCCCC3)CCCCC2)c1,inactive: 3.78%
7,Cc1ccc(C(=O)NCC2(N3CCCCC3)CCCCC2)o1,inactive: -0.793%
8,Fc1ccccc1NC1CCN(Cc2ccccc2)CC1,inactive: -1.32%
9,c1ccc(CN2CCC(Nc3ccccc3)CC2)cc1,inactive: 4.16%
10,CCCN1CCC(Nc2cc(OC)cc(OC)c2)CC1,inactive: -6.99%
11,CN(C)C1(CNC(=O)c2cccc(C#N)c2)CCCCC1,inactive: 5.22%
12,CC(C)(C)OC(=O)N1CCC(N(C(=O)c2ccccc2)c2ccc(Cl)cc2)CC1,inactive: 0.0255%
13,N#Cc1ccc(C(=O)NCC2(N3CCCCC3)CCCCC2)cc1,inactive: 1.26%
14,CCOC(=O)C(CC)C1=NC(C)(C)Cc2ccccc21.O=[N+]([O-])c1cc([N+](=O)[O-])c(O)c([N+](=O)[O-])c1 (configuration not stated),inactive: -0.0921%
15,N/C(=N\O)c1c(N)no[n+]1[O-],inactive: -0.749%
16,CCOC(=O)N1CCC(Nc2ccc(C)cc2)CC1,inactive: -1.09%
17,CCc1cc(C(=O)NCC2(N3CCCCC3)CCCCC2)sc1C,inactive: 3.56%
18,O=C(OC1CN2CCC1CC2)C1c2ccccc2C=Cc2ccccc21 (configuration not stated),inactive: -5.96%
19,O=C(O)c1cccc(Nc2c([N+](=O)[O-])cc([N+](=O)[O-])cc2[N+](=O)[O-])c1,inactive: 13.8%
20,O=C(NCC1(N2CCOCC2)CCCCC1)c1cc(Br)ccc1Cl,inactive: -0.242%
21,COc1cc(C(=O)NCC2(N3CCOCC3)CCCCC2)cc(OC)c1C,inactive: 1.84%

# — PubChem BioAssay AID493014 (National Center for Advancing Translational Sciences (NCATS), 2011)
